{"sequences": {"note": "Chains of the proteins cited; added tags and fusions are not shown. Lines headed by an entry give the natural chain unless they say otherwise; changes in a name come on top.", "UniProt P18031": "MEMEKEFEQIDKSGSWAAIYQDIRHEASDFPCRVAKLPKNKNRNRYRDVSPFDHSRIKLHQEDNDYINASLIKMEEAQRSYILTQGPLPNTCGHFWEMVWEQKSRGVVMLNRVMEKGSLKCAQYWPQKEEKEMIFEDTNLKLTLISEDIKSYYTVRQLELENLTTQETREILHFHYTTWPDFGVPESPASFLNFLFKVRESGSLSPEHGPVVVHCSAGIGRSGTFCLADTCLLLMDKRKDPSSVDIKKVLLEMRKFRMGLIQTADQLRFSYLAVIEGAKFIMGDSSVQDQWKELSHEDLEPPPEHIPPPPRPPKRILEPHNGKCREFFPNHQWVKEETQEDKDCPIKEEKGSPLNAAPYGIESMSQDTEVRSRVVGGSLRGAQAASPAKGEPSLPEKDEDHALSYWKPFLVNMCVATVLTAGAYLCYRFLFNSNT"}, "source": "patent US6391897B2", "about": "“Biphenyl oxo-acetic acids useful in the treatment of insulin resistance and hyperglycemia” (American Home Products Corporation, priority 1998, dated 2002)", "key": {"Human recombinant PTP1B": {"biological_target": "Human recombinant PTP1B (Homo sapiens, UniProt P18031)", "test": "Inhibition of tri-phosphorylated insulin receptor dodecaphosphopeptide dephosphorylation by hPTP1B (malachite green)", "type": "biochemical", "conditions": "for percent of phosphatase control (change) at 2.5 uM: compound at 2.5 uM"}, "[1]": {"test_system": "rat hepatic microsomal PTPases", "test": "Inhibition of tri-phosphorylated insulin receptor dodecaphosphopeptide dephosphorylation by rat hepatic PTPases (malachite green)", "type": "biochemical", "conditions": "rat hepatic microsomal PTPase activity; compound at 50 μM"}}, "data": [{"substance": "(2R)-2-[4′-(2-Benzoyl-benzofuarn-3-yl)-3-nitro-biphenyl-4-yloxy]-3-phenyl-propionic acid", "values": [{"measurement": "IC50", "setting": "Human recombinant PTP1B", "result": 788, "unit": "nM"}]}, {"substance": "(4′-Benzofuran-3-yl-biphenyl-4-yloxy)-acetic acid", "values": [{"measurement": "percent of phosphatase control (change) at 2.5 uM", "setting": "Human recombinant PTP1B", "result": "−51 (2.5 uM) %"}, {"measurement": "% Change from Control", "setting": "[1]", "result": "−11", "unit": "%"}]}, {"substance": "(2R)-2-4′-(2-Benzyl-benzofuarn-3-yl)-3-nitro-biphenyl-4-yloxy]-3-phenyl-propionic acid", "values": [{"measurement": "IC50", "setting": "Human recombinant PTP1B", "result": 231, "unit": "nM"}]}, {"substance": "2-(4′-Benzofuran-3-yl-biphenyl-4-yloxy)-3-phenyl-propionic acid", "values": [{"measurement": "percent of phosphatase control (change) at 2.5 uM", "setting": "Human recombinant PTP1B", "result": "−47 (2.5 uM) %"}, {"measurement": "% Change from Control", "setting": "[1]", "result": "−70", "unit": "%"}]}]}
